Drawing on the kinase profiling compilation of Christmann-Franck et al. (2016), this text covers residual activity for two compounds.

Chains of the proteins cited; added tags and fusions are not shown. Lines headed by an entry give the natural chain unless they say otherwise; changes in a name come on top.
UniProt P00519, whole entry, looked up: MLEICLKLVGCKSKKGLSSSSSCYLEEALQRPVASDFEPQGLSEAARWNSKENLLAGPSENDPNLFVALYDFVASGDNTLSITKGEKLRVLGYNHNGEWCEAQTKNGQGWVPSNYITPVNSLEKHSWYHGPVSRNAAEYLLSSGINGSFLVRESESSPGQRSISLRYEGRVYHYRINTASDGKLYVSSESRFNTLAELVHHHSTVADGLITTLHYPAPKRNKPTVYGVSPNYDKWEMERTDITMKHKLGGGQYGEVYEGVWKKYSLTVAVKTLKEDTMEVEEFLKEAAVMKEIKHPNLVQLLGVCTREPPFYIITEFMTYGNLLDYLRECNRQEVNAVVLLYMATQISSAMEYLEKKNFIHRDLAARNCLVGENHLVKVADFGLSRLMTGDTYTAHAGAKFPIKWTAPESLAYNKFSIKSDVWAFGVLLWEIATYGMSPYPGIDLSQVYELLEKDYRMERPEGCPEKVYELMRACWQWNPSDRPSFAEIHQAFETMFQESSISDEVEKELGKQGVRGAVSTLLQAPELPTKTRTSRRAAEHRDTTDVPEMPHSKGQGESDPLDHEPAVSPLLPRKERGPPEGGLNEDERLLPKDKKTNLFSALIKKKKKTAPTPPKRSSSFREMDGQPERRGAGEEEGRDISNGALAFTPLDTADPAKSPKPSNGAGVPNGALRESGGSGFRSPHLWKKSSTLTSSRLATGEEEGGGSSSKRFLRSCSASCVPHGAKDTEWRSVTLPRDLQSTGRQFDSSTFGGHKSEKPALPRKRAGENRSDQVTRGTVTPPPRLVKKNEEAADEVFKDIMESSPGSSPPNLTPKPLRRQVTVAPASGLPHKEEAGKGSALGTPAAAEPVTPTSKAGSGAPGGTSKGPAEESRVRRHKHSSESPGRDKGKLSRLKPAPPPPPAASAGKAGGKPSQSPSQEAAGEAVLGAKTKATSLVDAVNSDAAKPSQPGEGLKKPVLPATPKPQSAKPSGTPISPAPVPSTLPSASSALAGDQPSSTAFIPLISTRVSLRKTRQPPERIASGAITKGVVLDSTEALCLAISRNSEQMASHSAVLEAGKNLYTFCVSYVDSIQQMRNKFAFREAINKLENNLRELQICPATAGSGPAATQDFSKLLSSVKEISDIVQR
UniProt Q13237: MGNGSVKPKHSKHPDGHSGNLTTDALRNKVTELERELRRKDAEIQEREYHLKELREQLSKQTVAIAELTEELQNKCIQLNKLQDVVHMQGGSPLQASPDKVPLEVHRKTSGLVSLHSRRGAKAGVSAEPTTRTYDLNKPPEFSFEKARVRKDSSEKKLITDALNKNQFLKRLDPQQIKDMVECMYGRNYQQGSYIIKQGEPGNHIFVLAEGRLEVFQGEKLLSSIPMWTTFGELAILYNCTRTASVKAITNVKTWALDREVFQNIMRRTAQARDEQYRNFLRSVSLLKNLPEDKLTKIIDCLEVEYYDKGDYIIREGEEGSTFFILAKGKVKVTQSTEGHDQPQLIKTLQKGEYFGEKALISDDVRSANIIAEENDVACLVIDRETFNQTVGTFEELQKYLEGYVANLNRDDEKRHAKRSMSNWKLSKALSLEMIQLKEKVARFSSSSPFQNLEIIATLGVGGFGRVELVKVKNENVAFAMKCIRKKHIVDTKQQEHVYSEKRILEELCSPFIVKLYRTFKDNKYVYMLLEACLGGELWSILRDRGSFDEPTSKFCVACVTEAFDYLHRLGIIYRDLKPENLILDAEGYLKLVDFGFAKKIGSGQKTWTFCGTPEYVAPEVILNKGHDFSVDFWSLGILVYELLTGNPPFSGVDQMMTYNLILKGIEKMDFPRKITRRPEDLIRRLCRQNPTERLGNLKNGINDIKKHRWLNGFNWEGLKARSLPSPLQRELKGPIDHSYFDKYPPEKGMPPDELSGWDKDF

Test [1] addresses ABL1 (human) (UniProt P00519). Kind of test: radiometric filter-binding kinase assay, Kinase HotSpot. The note with it: compound 0.5 µM; ATP 10 µM.
The target of test [2] is PRKG2 (human) (UniProt Q13237). Described as above. The note with it: compound 0.5 µM; ATP 10 µM.

One may read the residual activity as the signal under treatment as a percentage of the control signal. In the case of `CC[C@@H](CO)Nc1nc(NCc2ccccc2)c2ncn(C(C)C)c2n1`, the residual activity in test [1] is 102%.

For `COc1cc2ncnc(Nc3ccc(F)c(Cl)c3)c2cc1OCCCN1CCOCC1`, the residual activity in test [2] came to 94.8%.
